Data reported in ChEMBL document CHEMBL1142779, “Synthesis and in vitro pharmacological studies of new C(2) modified salvinorin A analogues” (2005).
Several values for one entry are separate records, joined by “and”; a condition that tells them apart may be missing. Equal entries are not always repeated.

The chains behind the UniProt entries cited, without tags or fusion partners. Where a name states a change or a piece, a line headed by the entry shows the natural chain unless it says otherwise.
UniProt P41145: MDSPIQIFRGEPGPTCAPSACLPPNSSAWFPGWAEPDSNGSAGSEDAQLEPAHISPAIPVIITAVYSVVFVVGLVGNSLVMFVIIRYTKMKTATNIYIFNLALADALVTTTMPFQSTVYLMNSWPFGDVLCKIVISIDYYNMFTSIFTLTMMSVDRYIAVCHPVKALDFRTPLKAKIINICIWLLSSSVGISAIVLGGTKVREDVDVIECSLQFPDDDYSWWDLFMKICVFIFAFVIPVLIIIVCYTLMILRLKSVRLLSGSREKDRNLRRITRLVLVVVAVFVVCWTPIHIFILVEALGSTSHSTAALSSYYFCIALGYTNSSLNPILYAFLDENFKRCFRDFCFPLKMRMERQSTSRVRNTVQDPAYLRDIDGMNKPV

Target: Kappa-type opioid receptor (Homo sapiens) (UniProt P41145)
Experiment: Efficacy for maximal response against human k-opioid receptor

SMILES | Efficacy
COCO[C@H]1C[C@@H](C(=O)OC)[C@]2(C)CC[C@H]3C(=O)O[C@H](c4ccoc4)C[C@]3(C)C2C1=O (stereo partly drawn) | 98% and 100%
CN(C(=O)Cc1ccc(Cl)c(Cl)c1)C1CCCCC1N1CCCC1 (stereo not drawn) | 100%
COC(=O)[C@@H]1C[C@H](O)C(=O)C2[C@@]1(C)CC[C@H]1C(=O)O[C@H](c3ccoc3)C[C@]21C (stereo partly drawn) | 102% and 97%
